What was measured:
[1] = target: T1, Isocitrate dehydrogenase [NADP], mitochondrial (Homo sapiens, UniProt P48735); assay: Inhibition of wild type IDH2 (unknown origin)
T1 sequence (P48735 whole entry): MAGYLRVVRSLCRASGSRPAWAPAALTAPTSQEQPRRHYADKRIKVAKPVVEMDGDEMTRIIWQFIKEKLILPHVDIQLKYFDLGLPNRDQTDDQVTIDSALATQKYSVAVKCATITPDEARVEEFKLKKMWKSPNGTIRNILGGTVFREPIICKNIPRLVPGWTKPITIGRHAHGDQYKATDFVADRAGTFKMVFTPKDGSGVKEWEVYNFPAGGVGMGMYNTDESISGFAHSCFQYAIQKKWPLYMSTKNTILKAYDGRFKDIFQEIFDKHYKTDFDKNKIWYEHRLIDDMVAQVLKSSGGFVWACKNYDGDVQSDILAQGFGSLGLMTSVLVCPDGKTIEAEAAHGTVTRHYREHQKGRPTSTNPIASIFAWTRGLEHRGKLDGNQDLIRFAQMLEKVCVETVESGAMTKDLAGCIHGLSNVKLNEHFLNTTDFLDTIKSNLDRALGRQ

By UniProt entry, the sequences of proteins in these tests, tags left out. Residues count along the entry.
UniProt P48735, 40-452 R172K limits assumed: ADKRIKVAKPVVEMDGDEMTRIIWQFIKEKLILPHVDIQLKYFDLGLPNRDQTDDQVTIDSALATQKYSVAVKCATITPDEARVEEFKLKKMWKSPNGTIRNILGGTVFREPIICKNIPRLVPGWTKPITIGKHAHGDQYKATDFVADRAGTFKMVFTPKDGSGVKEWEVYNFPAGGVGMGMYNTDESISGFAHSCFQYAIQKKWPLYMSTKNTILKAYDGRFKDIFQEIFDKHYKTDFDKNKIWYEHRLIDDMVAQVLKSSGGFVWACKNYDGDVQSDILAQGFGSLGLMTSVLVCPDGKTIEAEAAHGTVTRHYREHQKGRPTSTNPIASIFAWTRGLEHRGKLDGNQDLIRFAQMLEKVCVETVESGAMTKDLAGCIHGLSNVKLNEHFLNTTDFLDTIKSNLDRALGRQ
UniProt P48735, 40-452 R140Q limits assumed: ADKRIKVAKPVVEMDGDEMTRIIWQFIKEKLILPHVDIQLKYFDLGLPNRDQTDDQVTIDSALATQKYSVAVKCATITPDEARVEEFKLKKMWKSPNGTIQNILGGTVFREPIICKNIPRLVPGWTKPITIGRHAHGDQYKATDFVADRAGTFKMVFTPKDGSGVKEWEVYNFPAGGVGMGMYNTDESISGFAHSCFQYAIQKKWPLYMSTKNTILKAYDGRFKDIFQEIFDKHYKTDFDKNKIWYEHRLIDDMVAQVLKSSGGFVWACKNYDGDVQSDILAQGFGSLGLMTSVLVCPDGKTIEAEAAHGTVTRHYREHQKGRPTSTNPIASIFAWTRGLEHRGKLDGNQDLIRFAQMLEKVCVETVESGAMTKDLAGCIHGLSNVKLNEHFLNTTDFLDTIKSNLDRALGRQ

[2] = target: Isocitrate dehydrogenase [NADP], mitochondrial (Homo sapiens, UniProt P48735, R172K); assay: Inhibition of IDH2 R172K mutant (unknown origin)
[3] = target: Isocitrate dehydrogenase [NADP], mitochondrial (Homo sapiens, UniProt P48735, R140Q); assay: Inhibition of IDH2 R140Q mutant (unknown origin)

IC50 [1]: > 100 µM
IC50 [2]: 10.4 µM
IC50 [3]: 0.06 µM
SMILES: O=C(Nc1cccc(C(F)(F)F)c1)Nc1cc(S(=O)(=O)NC2CC2)ccc1-c1ccsc1

From ChEMBL document CHEMBL4627324, “Design and synthesis of novel 2-arylbenzimidazoles as selective mutant isocitrate dehydrogenase 2 R140Q inhibitors” (Bioorg Med Chem Lett, 2020)
